# Assay results as given in EP1246824B1, “CARBOXAMIDE DIAZEPIN DERIVATIVES, PREPARATION METHOD, USE AS MEDICINES, PHARMACEUTICAL COMPOSITIONS AND USE THEREOF” (Aventis Pharma S.A., priority 1999, dated 2001).
# Chains of the proteins cited; added tags and fusions are not shown. Residues count along the entry.
# UniProt P00784, 134-345 limits assumed: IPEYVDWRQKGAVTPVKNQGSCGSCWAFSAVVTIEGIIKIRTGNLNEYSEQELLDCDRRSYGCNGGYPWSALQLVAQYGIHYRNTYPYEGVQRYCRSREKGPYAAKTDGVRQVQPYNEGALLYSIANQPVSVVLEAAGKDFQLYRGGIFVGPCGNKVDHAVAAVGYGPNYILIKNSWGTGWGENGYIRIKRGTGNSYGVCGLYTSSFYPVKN
# UniProt P43235, 115-329 limits assumed: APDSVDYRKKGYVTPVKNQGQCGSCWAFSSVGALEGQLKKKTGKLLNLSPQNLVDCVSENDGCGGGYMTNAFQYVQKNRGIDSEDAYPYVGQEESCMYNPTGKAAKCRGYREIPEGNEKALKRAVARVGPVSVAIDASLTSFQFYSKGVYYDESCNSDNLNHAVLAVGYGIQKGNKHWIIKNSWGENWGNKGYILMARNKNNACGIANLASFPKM
# Key:
# Settings in all cases: percentage printed in parentheses after the value 20; not explained, presumably % inhibition at 20 µM
# [1] = target: Cathepsine B (Homo sapiens, UniProt P07858); experiment: Inhibition of Cathepsine B (fluorogenic substrate Z-arg-arg-AMC)
# Method: (§1) Les produits à tester (10 mM) sont dilués à 1 mM en DMSO et repartis dans des plaques 96 puits polystyrène Nunc à raison de 2 µl par puits. La colonne 12 de la plaque est réservée pour les contrôles et reçoit donc […] de DMSO (sans produits) par puits. Les plaques sont conservées à -80°C et décongelées le jour de l'expérience.
# (§2) Les produits sont dilués à 50 µM par addition de 38 µl de tampon réaction : acétate de sodium 100 mM, EDTA 5 mM, DTT 1 mM pH 5,5. L'addition ainsi que tous les pipetages suivant sont réalisés par un pipeteur 96 cônes CybiWell. Après mélange des solutions, chaque produit est transféré dans 2 puits (duplicates) d'une plaque 384 puits noire Greiner à raison de 10 µl par puits. On peut donc tester 2 plaques 96 dans une plaque 384.
# (§3) Une solution de substrat à 50 µM, Z-Val-arg-AMC (Calbiochem), est préparée dans le tampon réaction . Le substrat, est ensuite distribué dans tous les puits de la plaque 384 (20 µl par puits).
# (§4) Une solution de Cathepsine K à 12,5 ng/ml est préparée dans le tampon réaction et distribuée dans tous les puits de la plaque 384 (20 µl par puits) exceptés les 16 puits servant de contrôles 100 % d'inhibition (colonne 23 et 24, lignes I à P) qui recevront 20 µl de tampon sans enzyme. Les contrôles […] d'inhibition sont réalisés dans les colonnes 23 et 24, lignes A à H qui ne contiennent pas de produits.
# (§5) Les plaques sont ensuite incubées 2H à température ambiante, puis lues sur Fluoroskan (Labsystems) : excitation 390 nm; émission 460 nm
# (§6) Les concentrations finales de chacun des réactifs sont : Produits 10 µM, Substrat 20 µM, enzyme 5 ng/ml.
# (§7) Les % d'inhibition pour chacun des produits sont calculés en utilisant les points à 0 et 100 % d'inhibition de chaque plaque comme références. Les produits présentant une inhibition significative sont ensuite retestés sur une gamme de concentration allant de 50 à 0,5µM pour déterminer une IC50.
# Etude de l'inhibition de Cathepsine B: […]
# [2] = target: Papain (Carica papaya, UniProt P00784); experiment: Inhibition of Papain (protocol as for Cathepsine K)
# Method: as §1, §2, §3
# Une solution de Cathepsine K à 12,5 ng/ml est préparée dans le tampon réaction et distribuée dans tous les puits de la plaque 384 (20 µl par puits) exceptés les 16 puits servant de contrôles 100 % d'inhibition (colonne 23 et 24, lignes I à P) qui recevront 20 µl de tampon sans enzyme. Les contrôles […] d'inhibition sont réalisés dans les colonnes 23 et 24, lignes A à H qui ne contiennent pas de produits. […]
# [3] = target: Cathepsine K (Homo sapiens, UniProt P43235); experiment: Inhibition of Cathepsine K (fluorogenic substrate Z-Val-arg-AMC)
# Method: Etude de l'inhibition de Cathepsine K :
# as §1, §2, §3, §4, §5, §6, §7
Structure (SMILES),"IC50 µM Cathepsin B, percentage in parentheses [1]","IC50 µM Cathepsin K, percentage in parentheses [3]","IC50 µM Papain, percentage in parentheses [2]"
C=CCOC(=O)CC[C@H](NC(=O)[C@@H]1CCCN2C(=O)CC[C@H](NC(=O)Nc3ccc(Oc4ccccc4)cc3)C(=O)N12)C(=O)CN1CCC(Cc2ccccc2)CC1,25%,,20(20%)
C=CCOC(=O)CC[C@H](NC(=O)[C@@H]1CCCN2C(=O)CC[C@H](NC(=O)Nc3ccc(Oc4ccccc4)cc3)C(=O)N12)C(=O)COC(=O)CCCC(=O)OC,,35%,18%)

# Now from value to compound, other results behind:
"IC50 µM Cathepsin B, percentage in parentheses [1]","IC50 µM Cathepsin K, percentage in parentheses [3]",Structure (SMILES),"IC50 µM Papain, percentage in parentheses [2]"
,20 (20%),CC(C)(C)Oc1ccc(C[C@H](NC(=O)[C@@H]2CCCN3C(=O)CC[C@H](NC(=O)NCCc4cccs4)C(=O)N23)C(=O)CSc2nc3ccccc3s2)cc1,
20(20%),,CC(C)(C)Oc1ccc(C[C@H](NC(=O)[C@@H]2CCCN3C(=O)CC[C@H](NS(=O)(=O)c4ccc5ccccc5c4)C(=O)N23)C(=O)CSc2nc3ccccc3s2)cc1,
20(20%),20(20%),CC(C)(C)Oc1ccc(C[C@H](NC(=O)[C@@H]2CCCN3C(=O)CC[C@H](NS(=O)(=O)c4ccc5ccccc5c4)C(=O)N23)C(=O)CSc2nnnn2-c2ccccc2)cc1,
